Tested on: P-gp
Assay: Effect of P-gp inhibitors on intestinal absorption of TSG, in situ perfusion
Conditions: inhibitor 25 μg·mL^− 1, p < 0.05, rat

C=C[C@H]1C[N@@]2CC[C@H]1C[C@@H]2[C@@H](O)c1ccnc2ccc(OC)cc12 [quinidine]
Ka values of TSG in presence of inhibitor: increased significantly
PA values of TSG in presence of inhibitor: increased significantly
